Test results taken from patent publication US20130310347A1, “MULTI-MODALITY MOLECULAR IMAGING HIGH-THROUGHPUT ASSAY FOR IDENTIFYING HEAT SHOCK PROTEIN 90 (HSP90) INHIBITORS” (The Board of Trustees of the Leland Stanford Junior …, priority 2012, published 2013).

Experiments:
[1] = test system: Hsp90 client proteins (phosphorylated/total Akt, Raf-1); experiment: Ex vivo western blotting of excised tumors; conditions: western blotting after last imaging time point; p>0.05
Protocol: To determine if the inhibition of Hsp90(α/β)/p23 interactions also leads to degradation of Hsp90 client proteins in mice, tumors were excised from sacrificed mice after the last PET/CT imaging time point. The expression of phosphorylated/total Akt and Raf-1 in tumor lysates was determined by western blotting. α-tubulin was used as a loading control.
Mice were euthanized after the last imaging time points and tumors were excised and homogenized in tissue extraction buffer in the presence of HALT® protease and phosphatase inhibitors (all from Pierce, Ill.). Protein concentrations were determined by Biorad Protein Dc assay. The expression of phosphorylated/total Akt, Raf-1 and […] were determined by western blotting as described in Chan et al., (2008) Cancer Res. 68: 216-226. Western blot images were quantitated using NIH Image J, and expressed as the ratio of target protein/α-tubulin for each treatment group.

293T cells = experiment: Alamar Blue cell proliferation; conditions: 24 h
Protocol: FIG. 6A is a series of graphs illustrating the effect of CP9 on cell proliferation determined by an Alamar Blue assay. The indicated cancer cell lines were treated with different concentrations of CP9 for 24 h prior to incubation with Alamar blue for 4 h. The Hsp90 inhibitors PU-H71 and 17AAG were used as positive controls. Emissions at 570 nm in CP9-treated cells were normalized to that of carrier control-treated cells. Results are expressed as normalized cell proliferation±S.E.M.
FIG. 12A is a graph illustrating the effect of A17, CP9 and 17-AAG on proliferation of 293T cells. 293T cells were treated with different concentrations of inhibitors in triplicates for 24 h prior to determination of cell proliferation by Alamar Blue assay. Emission signals were normalized to that of carrier control treated cells and expressed as mean±S.E.M.
CP9 had no effect on proliferation of normal MEFs. Since CP9 led to decrease in phosphorylated Akt (FIGS. 5A and 10A-10C), it was expected to inhibit glucose metabolism through relief of inhibition of glycogen synthase kinase […] (Nair & Olanow (2008) J. Biol. Chem. M707238200; Dandekar et al., (2007) J. Nucl. Med. 48: 602-607).

[2] = test system: Hsp90(α/β)/p23 interactions; experiment: RL/FL bioluminescence imaging of 293T xenografts, both isoforms stated jointly; conditions: same dosing regimen as CP9; p>0.05
From the text: To monitor the inhibition of Hsp90(α/β)/p23 interactions by CP9 in living mice, a second reporter (FL-eGFP) was introduced into the 293T cells stably expressing Hsp90(α/β)/p23 split RL reporters (now referred as 293T(α/β)—FG cells). Although ^18F-FLT has also been used to monitor tumor cell proliferation in small animals by PET (Tseng et al., (2005) J. Nucl. Med. 46: 1851-1857), FL imaging was used because of the higher sensitivity and ease of performing sequentially with RL imaging for Hsp90(α/β)/p23 interactions. […] Baseline RL and FL signals in each implanted tumor were determined upon i.v. substrate injection. […]
The efficacy of A17 in disruption of Hsp90(α/β)/p23 interactions and inhibition of cellular proliferation in living mice was monitored by BLI using the same dosing regimen as CP9. […]
Mice were gas anesthetized using isofluorane (2% in 100% oxygen, 1 L/min) during all injection and imaging procedures and kept at 37° C. […] Baseline RL activities in the implanted tumors in living mice were determined by i.v. injection of 30 μg cltz (in 150 μl of 5% ethanol: 95% PBS) and image acquisition of 3 mins. After a 30 mins wait for RL signals to decay, FL activities were determined by i.v. injection of 163 μg of D-Luc in 100 μl PBS with image acquisition of 10 sequences for 15 sec each to obtain the peak max radiance. […]

Cc1cc(NC(=O)CSc2nc(-c3ccco3)cc(C(F)(F)F)n2)no1
Hsp90 client proteins in excised tumors relative to carrier control [1]: did not lead to significant decreases | IC50 for growth inhibition, fold lower than that of CP9 (293T cells): about 2 fold | Hsp90(α/β)/p23 interactions in tumor xenografts vs carrier control mice [2]: failed to significantly decrease
